{"source": "patent US20100093719A1", "about": "“PHARMACOKINETICALLY IMPROVED COMPOUNDS” (SURFACE LOGIX, INC., priority 2005, published 2010)", "key": {"Caco-2": {"system": "Caco-2", "assay": "Caco-2 permeability", "text": "Several model systems are available, employing monolayers of various cell types, for evaluation of active transport of pharmaceutically active substances. For example, monolayers of Caco-2 intestinal epithelial cells can be used to evaluate active transport of substances between the intestine and the bloodstream. When plated on a surface which allows the flow of material from apical to basolateral and vice versa, such cells form a biological membrane which can be used to simulate physiological absorption and bio-availability. In another example, mouse brain capillary endothelial cell (MBEC) lines have been established to evaluate active transport in and out of the central nervous system. Another example of such cells is HT29 human colon carcinoma cells. Further, monolayers expressing particular transporter proteins can be established using transfected cells. For example, Sasaki et al (2002) J. Biol. Chem. 8:6497 used a double-transfected Madin-Darby canine kidney cell monolayer to study transport of organic anions."}, "PAMPA permeability": {"assay": "PAMPA permeability", "format": "in vitro ADME"}, "Non-specific binding": {"assay": "Non-specific binding", "format": "in vitro ADME"}, "[1]": {"assay": "Protein binding by ultrafiltration", "description": "Protein binding was determined by standard ultrafiltration methods."}, "PDE-6": {"target": "PDE-6", "assay": "Phosphodiesterase inhibition PDE-6", "conditions": "read-out: PDE-6", "description": "Phosphodiesterase inhibition was determined by methods known to one of skill in the art."}}}
{"molecule": "CCCc1nc(C)c2c(=O)[nH]c(-c3cc(S(=O)(=O)N(C)CC(=O)N(C)CCOC)ccc3OCC)nn12", "values": [{"measurement": "Caco-2 AtoB", "setting": "Caco-2; AtoB", "value": "11.4 10^−6"}, {"measurement": "Caco-2 BtoA", "setting": "Caco-2; BtoA", "value": "63.3 10^−6"}, {"measurement": "PAMPA Hex", "setting": "PAMPA permeability", "value": "1.45 10^−6"}, {"measurement": "Non-Spec Binding", "setting": "Non-specific binding", "value": 0, "unit": "%"}, {"measurement": "Protein Binding", "setting": "[1]", "value": 95.8, "unit": "%"}, {"measurement": "IC50", "setting": "PDE-6", "value": 6, "unit": "nM"}]}
